Experimental findings from patent publication EP1202975B1, “SUBSTITUTED POLYCYCLIC ARYL AND HETEROARYL PYRAZINONES USEFUL FOR SELECTIVE INHIBITION OF THE COAGULATION CASCADE” (Pharmacia Corporation, priority 1999, dated 2000) are described below.

Protein sequences, listed by entry. Tags and fused reporters are not part of them. Residues count along the entry.
UniProt P00761, 9-231: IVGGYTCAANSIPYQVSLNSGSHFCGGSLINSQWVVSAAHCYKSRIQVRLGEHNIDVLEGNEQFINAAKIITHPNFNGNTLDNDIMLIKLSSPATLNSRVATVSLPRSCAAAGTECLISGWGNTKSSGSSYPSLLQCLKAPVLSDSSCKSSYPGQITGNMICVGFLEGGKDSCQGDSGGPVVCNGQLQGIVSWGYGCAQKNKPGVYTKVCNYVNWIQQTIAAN

pIC50: −log10 of the molar value.

One test concerns the target Trypsin (type IX from porcine pancreas) (Sus scrofa, UniProt P00761).
Details: not given
As for `Cc1c(Cl)nc(NCCc2ccncc2)c(=O)n1CC(=O)NCCc1ccncc1` [Example E-0006], the “% Inhibition Trpysin II (100 µM)” value was determined as 1%. On the same count and under the same terms, the same measure for `O=C(Cn1c(-c2ccccc2)c(Cl)nc(NCc2ccccc2)c1=O)NCCc1ccncc1` [Example E-0009]: 1%; for `O=C(Cn1c(-c2ccccc2)c(Cl)nc(NCCc2cccnc2)c1=O)NCCc1ccncc1` [Example E-0013]: 1%.

Staying with this test, now noted: 100 µM.
Take `O=C(Cn1c(-c2ccc(Cl)cc2)c(Cl)nc(NCc2ccccc2)c1=O)NCCc1ccncc1` [Example E-0017]: the “% Inhibition Trpysin II (100 µM)” value is given as 1%. The same measure, in the same setting: the same measure for `O=C(Cn1c(-c2ccc(Cl)cc2)c(Cl)nc(NCCc2ccccc2)c1=O)NCCc1ccncc1` [Example E-0018]: 4%; for `O=C(Cn1c(-c2ccc(Cl)cc2)c(Cl)nc(NCCc2cccc(Cl)c2)c1=O)NCCc1ccncc1` [Example E-0019]: 2%. Take `O=C(Cn1c(-c2ccc(Cl)cc2)c(Cl)nc(NCCc2ccc(Cl)cc2)c1=O)NCCc1ccncc1` [Example E-0020]: the “% Inhibition Trpysin II (100 µM)” value came out at 4%.

For the molecule `O=C(Cn1c(-c2ccc(Cl)cc2)c(Cl)nc(NCCc2cccnc2)c1=O)NCCc1ccncc1` [Example E-0021], the “% Inhibition Trpysin II (100 µM)” value is 5%. For `O=C(Cn1c(-c2ccc(Cl)cc2)c(Cl)nc(NCCc2ccncc2)c1=O)NCCc1ccncc1` [Example E-0022], the “% Inhibition Trpysin II (100 µM)” value is recorded as 2%. In the case of `O=C(Cn1c(-c2ccc(Cl)cc2)c(Cl)nc(NCCN2CCOCC2)c1=O)NCCc1ccncc1` [Example E-0023], the “% Inhibition Trpysin II (100 µM)” value came out at 1%. The same measure, in the same setting: the same measure for `O=C(Cn1c(-c2ccc(Cl)cc2)c(Cl)nc(NCc2ccncc2)c1=O)NCCc1ccncc1` [Example E-0024]: 1%; for `O=C(Cn1c(-c2ccc(Cl)cc2)c(Cl)nc(NCc2ccccc2)c1=O)NCCc1ccncc1` [Example E-0025]: 3%. The same measure, in the same setting: the same measure for `O=C(Cn1c(-c2ccc(Cl)cc2)c(Cl)nc(NCCc2ccccc2)c1=O)NCCc1ccncc1` [Example E-0026]: 3%; for `O=C(Cn1c(-c2ccc(Cl)cc2)c(Cl)nc(NCCc2ccc(Cl)cc2)c1=O)NCCc1ccncc1` [Example E-0028]: 3%; for `O=C(Cn1c(-c2ccc(Cl)cc2)c(Cl)nc(NCCc2cccnc2)c1=O)NCCc1ccncc1` [Example E-0029]: 2%. The same measure, in the same setting: the same measure for `O=C(Cn1c(-c2ccc(Cl)cc2)c(Cl)nc(NCCc2ccncc2)c1=O)NCCc1ccncc1` [Example E-0030]: 4%; for `O=C(Cn1c(-c2ccc(Cl)cc2)c(Cl)nc(NCc2ccncc2)c1=O)NCCc1ccncc1` [Example E-0032]: 3%; for `COc1ccc(-c2c(Cl)nc(NCCc3ccccc3)c(=O)n2CC(=O)NCCc2ccncc2)cc1` [Example E-0034]: 3%. On to `COc1ccc(-c2c(Cl)nc(NCCc3cccc(Cl)c3)c(=O)n2CC(=O)NCCc2ccncc2)cc1` [Example E-0035], for which the “% Inhibition Trpysin II (100 µM)” value amounted to 2%.

In the case of `COc1ccc(-c2c(Cl)nc(NCCc3ccc(Cl)cc3)c(=O)n2CC(=O)NCCc2ccncc2)cc1` [Example E-0036], the “% Inhibition Trpysin II (100 µM)” value is recorded as 0%. On the same count and under the same terms, the same measure for `O=C(Cn1c(-c2ccc(-c3ccccc3)cc2)c(Cl)nc(NCc2ccccc2)c1=O)NCCc1ccncc1` [Example E-0049]: 0%; for `O=C(Cn1c(-c2ccc(-c3ccccc3)cc2)c(Cl)nc(NCCc2ccccc2)c1=O)NCCc1ccncc1` [Example E-0050]: 0%. The same measure, in the same setting: the same measure for `O=C(Cn1c(-c2ccc(-c3ccccc3)cc2)c(Cl)nc(NCCc2ccc(Cl)cc2)c1=O)NCCc1ccncc1` [Example E-0052]: 0%.

The same test, now with this note: read-out: IC50 or % Inhibition Trpysin II (30 µM); cells given as a plain number (IC50).
The pIC50 is −log10 of the IC50, conventionally taken in molar units. Take `N=C(N)c1ccc(CNC(=O)Cn2c(-c3ccccc3)c(Cl)nc(NCCc3ccncc3)c2=O)cc1` [1471-13]: the pIC50 is 6.28. Still for that read-out and setting: as for `N=C(N)c1ccc(CNC(=O)Cn2c(-c3cccc(Cl)c3)c(Cl)nc(NCc3ccccc3)c2=O)cc1` [1471-25], the figure is 6.44; as for `CCc1c(Cl)nc(NCCc2cccc(Cl)c2)c(=O)n1CC(=O)NCc1ccc(C(=N)N)cc1` [1471-62], less than 4.52.

Consider `CCCCNc1nc(Cl)c(-c2ccccc2)n(CC(=O)NCc2ccc(C(=N)N)cc2)c1=O` [1517-35], for which the pIC50 is 4.63. For the molecule `CC(C)CCNc1nc(Cl)c(-c2ccccc2)n(CC(=O)NCc2ccc(C(=N)N)cc2)c1=O` [1517-40], the pIC50 is 6.43. The same measure, in the same setting: as for `CC(C)(C)CCNc1nc(Cl)c(-c2ccccc2)n(CC(=O)NCc2ccc(C(=N)N)cc2)c1=O` [1517-41], the figure is 6.23; as for `CC(C)CCNc1nc(Cl)c(-c2ccccc2)n(CC(=O)NCc2ccc(C(=N)N)cc2)c1=O` [1522-14], 6.70. On the same count and under the same terms, the same measure for `CC(C)(C)CCNc1nc(Cl)c(-c2ccccc2)n(CC(=O)NCc2ccc(C(=N)N)cc2)c1=O` [1522-18]: 6.70; for `CC(CNc1nc(Cl)c(-c2ccccc2)n(CC(=O)NCc2ccc(C(=N)N)cc2)c1=O)N(C)C` (stereo not shown) [1522-23]: 6.52; for `CC(C)CNc1nc(Cl)c(-c2ccccc2)n(CC(=O)NCc2ccc(C(=N)N)cc2)c1=O` [1522-34]: 6.70. The same measure, in the same setting: as for `N=C(N)c1ccc(CNC(=O)Cn2c(-c3ccccc3)c(Cl)nc(NC3CCCCCC3)c2=O)cc1` [1522-36], the figure is 6.52; as for `N=C(N)c1ccc(CNC(=O)Cn2c(-c3ccccc3)c(Cl)nc(NCCNc3ncc(C(F)(F)F)cc3Cl)c2=O)cc1` [1522-37], 6.52. As for `N=C(N)c1ccc(CNC(=O)Cn2c(-c3ccccc3)c(Cl)nc(NCCNc3ncccc3C(F)(F)F)c2=O)cc1` [1522-38], the negative-log IC50 (pIC50) is 6.52. Still for that read-out and setting: as for `C[C@H](Nc1nc(Cl)c(-c2ccccc2)n(CC(=O)NCc2ccc(C(=N)N)cc2)c1=O)C1CCCCC1` [1522-43], the figure is 6.52; as for `N=C(N)c1ccc(CNC(=O)Cn2c(-c3ccccc3)c(Cl)nc(NC3CC4CCC3C4)c2=O)cc1` (stereo not shown) [1522-44], 6.70.

As to `N=C(N)c1ccc(CNC(=O)Cn2c(-c3ccccc3)c(Cl)nc(NC3CCS(=O)(=O)C3)c2=O)cc1` (stereo not shown) [1522-46], the pIC50 is 6.70. On the same count and under the same terms, the same measure for `N=C(N)c1ccc(CNC(=O)Cn2c(-c3ccccc3)c(Cl)nc(NCCc3ccncc3)c2=O)cc1` [Example 19]: 6.57; for `N=C(N)c1ccc(CNC(=O)Cn2c(-c3ccc(-c4ccccc4)cc3)c(Cl)nc(NCCc3cccnc3)c2=O)cc1` [Example 21]: 5.70. `N=C(N)c1ccc(CNC(=O)Cn2c(-c3ccc(-c4ccccc4)cc3)c(Cl)nc(NCCc3ccc(Cl)cc3)c2=O)cc1` [Example 22]: the pIC50 is 5.77. On to `N=C(N)c1ccc(CNC(=O)Cn2c(-c3cccc(Cl)c3)c(Cl)nc(NCc3ccccc3)c2=O)cc1` [Example 23], for which the pIC50 is 6.49.

Consider `N=C(N)NC/C=C\CNC(=O)Cn1c(-c2ccccc2)cnc(NCCc2ccccc2)c1=O` [Example 37], for which the pIC50 is 6.52.

On to `CC(C)Nc1nc(Cl)c(-c2cccc(C(=O)O)c2)n(CC(=O)NCc2ccc(C(=N)N)cc2)c1=O` [Example 65], for which the pIC50 is 6.52.

The test is the same for the next values; noted with them: read-out: IC50 or % Inhibition Trpysin II (30 µM); cells without % sign: IC50.
In the case of `N=C(N)c1ccc(CNC(=O)Cn2c(-c3cccc(N)c3)c(Cl)nc(NC3CCC3)c2=O)c(F)c1` [1543-39], the pIC50 was 7.30.
